# Results reported in patent publication US20210047278A1, “E3 UBIQUITIN LIGASE AGONISTS, PHARMACEUTICAL COMPOSITIONS INCLUDING THE E3 UBIQUITIN LIGASE AGONISTS, RELATED METHODS OF USE” (FRED HUTCHINSON CANCER RESEARCH CENTER, priority 2018, published 2021).
# The chains behind the UniProt entries cited, without tags or fusion partners. Residues count along the entry.
# UniProt Q969H0, 64-707 R505L limits assumed: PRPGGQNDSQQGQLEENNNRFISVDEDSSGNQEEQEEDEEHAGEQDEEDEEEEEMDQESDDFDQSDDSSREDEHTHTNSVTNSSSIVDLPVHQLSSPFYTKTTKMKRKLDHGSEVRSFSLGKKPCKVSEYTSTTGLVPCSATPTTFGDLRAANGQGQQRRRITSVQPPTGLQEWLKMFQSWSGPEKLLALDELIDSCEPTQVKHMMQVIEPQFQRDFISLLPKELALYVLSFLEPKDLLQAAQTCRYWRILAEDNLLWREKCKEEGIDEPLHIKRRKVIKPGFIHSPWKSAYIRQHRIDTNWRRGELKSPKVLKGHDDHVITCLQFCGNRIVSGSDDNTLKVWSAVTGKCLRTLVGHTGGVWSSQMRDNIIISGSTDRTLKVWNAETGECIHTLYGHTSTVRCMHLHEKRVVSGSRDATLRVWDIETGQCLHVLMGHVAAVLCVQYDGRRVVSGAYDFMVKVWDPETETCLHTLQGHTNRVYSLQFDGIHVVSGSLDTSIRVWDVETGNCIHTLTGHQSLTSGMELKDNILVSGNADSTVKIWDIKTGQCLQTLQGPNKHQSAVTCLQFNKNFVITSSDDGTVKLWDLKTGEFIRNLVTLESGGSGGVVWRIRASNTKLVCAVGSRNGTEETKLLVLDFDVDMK
# UniProt P63208, 2-163 partner limits assumed: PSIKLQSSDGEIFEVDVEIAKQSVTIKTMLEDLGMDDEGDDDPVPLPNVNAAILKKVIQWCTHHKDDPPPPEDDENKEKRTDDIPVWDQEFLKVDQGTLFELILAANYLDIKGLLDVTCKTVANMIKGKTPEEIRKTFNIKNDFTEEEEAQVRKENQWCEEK
# Where two headings read alike, the source gives them in different places.
# Tests used:
# [1] = test system: pCycE alone; experiment: Counterscreen 2 ALPHAscreen with cyclin E phosphopeptide alone (CSRUN2/DCSRUN2); conditions: for CyCEP ACT DCSRUN2 Averaged Max % Response: activation relative to WT-FBW7+pCycE, averaged maximum; for EC50: read-out: CyCEP ACT DCSRUN2 Final EC50, dose-response, triplicate, 10 point 3-fold dilutional series
# [2] = biological target: FBW7^ARG (RLFBW7) alone (Homo sapiens, UniProt Q969H0, R505L); experiment: Counterscreen 1 ALPHAscreen with FBW7^ARG alone (CSRUN1/DCSRUN1)
# [3] = biological target: FBW7^ARG+pCycE (Homo sapiens, UniProt Q969H0, R505L); experiment: FBW7^ARG-cyclin E agonist ALPHAscreen (primary PRUN, confirmation CRUN1, dose-response DRUN); conditions: for FBW7 ACT Averaged Max % Response / EC50: DRUN dose-response; for FBW7 ACT Averaged Max % Response: relative to WT-FBW7+pCycE; for FBW7 ACT CRUN1 Avg % Response and Stdev: confirmation assay, single concentration 26.1 μM; for FBW7 ACT PRUN % Response: primary screen, 1536-well, 26.1 μM, FBW7^ARG + pCycE degron peptide, high control wt-FBW7+pCycE
# [4] = read-out: RLFBW7 ACT DCSRUN1 Final EC50, dose-response counterscreen
# [5] = read-out: FBW7 ACT EC50 Curve Fit Raw, Molar, raw curve fit
# [6] = read-out: FBW7 ACT Final EC50, Molar, triplicate, 10 point 3-fold dilution, max approx. 87 μM
# [7] = read-out: RLFBW7 ACT DCSRUN1 EC50 Curve Fit Raw, dose-response counterscreen, raw curve fit
smiles,measurement,setting,value
O=C(CC1C(=O)N(c2ccc(Cl)cc2)C(=S)N1CCc1ccc(Cl)cc1)Nc1ccc(F)cc1 (stereo not drawn),CyCEP ACT DCSRUN2 Averaged Max % Response,[1],2.05%
same,EC50,[1],> 49.7 µM
same,RLFBW7 ACT DCSRUN1 Averaged Max % Response,[2],1.01%
same,EC50,[2]; [4],> 49.7 µM
same,FBW7 ACT Averaged Max % Response,[3],8.36%
same,FBW7 ACT CRUN1 Avg % Response and Stdev,[3]; triplicate,3.65 ± 0.87%
same,FBW7 ACT PRUN % Response,[3],2.03%
same,EC50,[3]; [5],0.0067 µM
same,EC50,[3]; [6],> 49.7 µM
O=C(c1ccco1)N1CCN(c2ncc(-c3ccc(CO)cc3)n3ccnc23)CC1,CyCEP ACT DCSRUN2 Averaged Max % Response,[1],1.13%
same,EC50,[1],> 65.3 µM
same,RLFBW7 ACT DCSRUN1 Averaged Max % Response,[2],0.65%
same,EC50,[2]; [7],21.2 µM
same,EC50,[2]; [4],> 65.3 µM
same,FBW7 ACT Averaged Max % Response,[3],20.66%
same,FBW7 ACT CRUN1 Avg % Response and Stdev,[3]; triplicate,4.91 ± 0.57%
same,FBW7 ACT PRUN % Response,[3],4.77%
same,EC50,[3]; [5],71.5 µM
same,EC50,[3]; [6],> 65.3 µM
CC(=O)Nc1cccc(-c2cnc(N3CCN(C(=O)c4ccco4)CC3)c3nccn23)c1,CyCEP ACT DCSRUN2 Averaged Max % Response,[1],1.97%
same,EC50,[1],> 65.3 µM
same,RLFBW7 ACT DCSRUN1 Averaged Max % Response,[2],1.06%
same,EC50,[2]; [7],0.0203 µM
same,EC50,[2]; [4],> 65.3 µM
same,FBW7 ACT Averaged Max % Response,[3],14.24%
same,FBW7 ACT CRUN1 Avg % Response and Stdev,[3]; triplicate,3.35 ± 0.18%
same,FBW7 ACT PRUN % Response,[3],3.23%
same,EC50,[3]; [5],16.5 µM
same,EC50,[3]; [6],> 65.3 µM
CCCCC(=O)OCCN1C(=O)c2cccc3c(N4CCOCC4)ccc(c23)C1=O,CyCEP ACT DCSRUN2 Averaged Max % Response,[1],0.11%
same,EC50,[1],> 62.6 µM
same,RLFBW7 ACT DCSRUN1 Averaged Max % Response,[2],10.99%
same,EC50,[2]; [7],15.8 µM
same,EC50,[2]; [4],> 62.6 µM
same,FBW7 ACT Averaged Max % Response,[3],21.12%
same,FBW7 ACT CRUN1 Avg % Response and Stdev,[3]; triplicate,2.96 ± 0.51%
same,FBW7 ACT PRUN % Response,[3],3.44%
same,EC50,[3]; [5],14.8 µM
same,EC50,[3]; [6],> 62.6 µM
